High-throughput results as filed in PubChem BioAssay.
Most compounds without a hit are left out; they make up all but 2.2% or so of the library.
miR-21 FLuc = miR-21 reporter, rising signal; HeLa miR-21 FLuc reporter, luciferase, 48 h; Potency, µM (highest dose often 38.3 µM), for the others: top-dose reporter change, positive = more light; 340,000 tested, under 10 active; AID 2288; active = well fitted rising curve with a large enough effect; inconclusive = small, poorly fitted or top-dose-only effect; inactive = no such curve, though single readings can be large or run the other way;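 further: % of control where 0% means no effect; miR-21 action dims this reporter so a rising signal means less miR-21 action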
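Using DMEM plus 10% FBS, HeLa miR-21-FLuc cells are incubated with test compounds (final up to about 40uM) for 48 hours; firefly luciferase signal is then imaged following reagent-mediated lysis.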
Nrf2 inh = inhibitors of Nrf2 signaling; A549 ARE-Fluc reporter, luciferase luminescence, 18-24 h; Potency, µM (doses to about 46 µM), without a hit: at the top dose activity change, negative = inhibition, actives largely listed as inhibitors; 360,000 tested, 2.1% active; AID 504444; note: potency is the fitted concentration of half-maximal effect; % is set by controls: 0 for no effect and ±100 for the full control effect; nearly all actives have a fitted effect of over 60% in size
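Reporter: ARE-Fluc in A549. Exposure: 18-24 h, 37 °C, 5% CO2, 5% FBS OPTI-MEM. Readouts: fluorescent cytotoxicity (CellTiter-Fluor), then luminescent Nrf2 signal after BugLite.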
Nrf2 activator = activators of Nrf2 (ARE) signaling. 410,000 tested, 0.31% active. AREc32 ARE-luciferase reporter (MCF7-derived line), luminescence, 24 h. Potency, µM (series often up to 46.1 µM), for the others: at the highest dose activation, hits mostly activators; note: potency is the fitted concentration of half-maximal effect; % of control where 0% means no effect; nearly all actives have a fitted effect of over 65% in size
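For detection, Steady-Glo was added and plates sat 30 min at RT; before that, AREc32_Fluc cells grown overnight in OPTI-MEM/5% FBS had been treated with 23 nL compound for 24 hr at 37 deg C.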
A549 viability = A549 cytotoxicity, counter-screen for Nrf2 inhibitors; A549 ARE-Fluc cells, CellTiter-Fluor viability, 18-24 h; Potency, µM (highest dose often 46 µM), for inactives: top-dose activity change, negative = cytotoxicity, hits mostly inhibitors; 390,000 tested, 0.16% active; note: potency is the fitted concentration of half-maximal effect; % is set by controls: 0 for no effect and ±100 for the full control effect
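A549 ARE-Fluc cells in 5% FBS OPTI-MEM, 5000 cells/well, rested 2 h then exposed to compounds in concentration-response for 18-24 h at 37 °C. Viability by CellTiter-Fluor fluorescence (Ex 405/Em 525) after 30 min; luciferase luminescence (BugLite, 15 min, RT) read afterwards.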
B2AR arrestin = recruits beta-arrestin to the human beta2-adrenergic receptor | beta-arrestin recruitment to beta2AR, cell-based reporter | 330,000 tested, 0.02% active | AID 492947 | Potency, µM (titrated, usually from 46.1 µM), inactives show at the top dose activation, actives largely listed as activators | P07550;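 note: potency is the fitted concentration of half-maximal effect; 0% = DMSO controls and full agonism = EC100 isoproterenol or metaproterenol; nearly all actives have a fitted effect of over 65% in size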
Active calls of the source: *; ? = inconclusive; / = no result; [ ] = dose if it differs, or a comment. Unless noted, calls come from the whole dose curve; as a rule, active = well fitted curve in the direction sought with a large enough effect; inconclusive = small, poorly fitted or top-dose-only effect, or another doubt; inactive = no such curve, though single readings can be large; an effect the other way counts as inactive or inconclusive.

item	smiles	miR-21 FLuc	Nrf2 inh	Nrf2 activator
1	COc1cc(/C=N\NC(=O)c2cccnc2)ccc1OC(=O)c1ccccc1Cl	2%	15µM*	3%
2	Cc1ccc(/C=N/Nc2ncc(Cl)cc2Cl)s1	-65%	?	3%
3	Clc1cnc(N/N=C/c2cccs2)c(Cl)c1	-51%	?	?
4	CCCOc1ccc(C(=O)Nc2ccc(Cl)c(-c3nc4ncccc4o3)c2)cc1	7%	?	1%
5	O=C(Nc1nccs1)c1ccc(S(=O)(=O)NCC2CCCCC2)cc1	17%	13µM*	0%
6	CCCSc1nc2sc3c(c2c(=O)n1-c1ccc(C)c(Cl)c1)CCN(C(C)=O)C3	13%	-7%[9.27 µM]	-1%
7	CC(=O)COC(=O)C1CCN(S(=O)(=O)c2cc([N+](=O)[O-])ccc2Cl)CC1	-16%	4%	14µM*
8	Cc1ccc2nc(NC(=O)C3CCN(S(=O)(=O)c4cc([N+](=O)[O-])ccc4Cl)CC3)sc2c1	7%	?	9%
9	Cc1ccc(NC(=O)C2CCN(S(=O)(=O)c3cc([N+](=O)[O-])ccc3Cl)CC2)nc1	/	21µM*	?
10	Cc1ccccc1NC(=O)C1CCN(S(=O)(=O)c2c(C)noc2/C=C/c2ccco2)CC1	-1%	-8%	1%

item	A549 viability	B2AR arrestin
1	-5%	-1%
2	5.8µM*	0%
3	-23%	0%
4	-5%	/
5	-17%	-1%
6	0%	/
7	3%	0%
8	?	-1%
9	-17%	-1%
10	-3%	/

Sorted by length of the SMILES (high to low): three of the compounds above.
item	smiles	miR-21 FLuc	Nrf2 inh	Nrf2 activator
8	Cc1ccc2nc(NC(=O)C3CCN(S(=O)(=O)c4cc([N+](=O)[O-])ccc4Cl)CC3)sc2c1	7%	?	9%
9	Cc1ccc(NC(=O)C2CCN(S(=O)(=O)c3cc([N+](=O)[O-])ccc3Cl)CC2)nc1	/	21µM*	?
5	O=C(Nc1nccs1)c1ccc(S(=O)(=O)NCC2CCCCC2)cc1	17%	13µM*	0%

item	A549 viability	B2AR arrestin
8	?	-1%
9	-17%	-1%
5	-17%	-1%

Back to the main list; the three compounds before the break are reprinted first.
item	smiles	miR-21 FLuc	Nrf2 inh	Nrf2 activator
8	Cc1ccc2nc(NC(=O)C3CCN(S(=O)(=O)c4cc([N+](=O)[O-])ccc4Cl)CC3)sc2c1	7%	?	9%
9	Cc1ccc(NC(=O)C2CCN(S(=O)(=O)c3cc([N+](=O)[O-])ccc3Cl)CC2)nc1	/	21µM*	?
10	Cc1ccccc1NC(=O)C1CCN(S(=O)(=O)c2c(C)noc2/C=C/c2ccco2)CC1	-1%	-8%	1%
11	Cc1ccc(NC(=O)C2CCN(S(=O)(=O)c3c(C)noc3/C=C/c3ccco3)CC2)nc1	-6%	16µM*	19%
12	O=S(=O)(Nc1cccc2ccccc12)c1cccc2ccccc12	/	18µM*	/
13	O=S(=O)(Nc1cccc2ccccc12)c1ccccc1	-4%	16%	9%
14	COc1ccccc1Nc1ccc(NC(=O)c2cccc([N+](=O)[O-])c2C)cc1	16%	10µM*	8%
15	COc1ccc(NC(=O)c2ccccc2[N+](=O)[O-])cc1	-42%	?	0%
16	Clc1ccc2c(NCc3ccccn3)ncnc2c1	-2%	/	6.3µM*
17	Clc1ccc2c(NCc3ccco3)ncnc2c1	3%	?	?
18	Clc1ccc2c(NCc3cccs3)ncnc2c1	13%	16µM*	0%
19	Cc1ccccc1OCC(=O)NCC(=O)OCC(=O)c1ccc(F)cc1	/	-20%	/
20	Cc1ccc2cc(C#N)c(NCCNC(=O)C3CC3)nc2c1C	-7%	7.3µM*	0%

item	A549 viability	B2AR arrestin
8	?	-1%
9	-17%	-1%
10	-3%	/
11	-1%	0%
12	-24%	/
13	-6%	0%
14	-22%	-1%
15	-1%	-1%
16	-1%	-1%
17	-14%	-1%
18	-4%	0%
19	0%	/
20	-19%	0%

Next records
item	smiles	miR-21 FLuc	Nrf2 inh	Nrf2 activator
21	O=C(Nc1ccc(F)cc1)c1nn(-c2ccccc2)c(=O)cc1Cl	?	18µM*	-2%
22	CCc1ccc2oc(-c3cccc(NC(=O)c4ccc(N5CCC(C)CC5)c([N+](=O)[O-])c4)c3)nc2c1	-10%	2%	-1%
23	C=CCn1c(SCc2c(C)noc2C)nc2sc3c(c2c1=O)CCCCC3	-2%	16µM*	-1%
24	N#Cc1c(NCc2ccccc2)ccnc1NCc1cccnc1	21%	6.5µM*	0%
25	Cc1cc2c(s1)c1cnn(Cc3ccccc3F)c(=O)c1n2C(C)C	/	?	/
26	O=C(Oc1ccc(Cl)c(Cl)c1)C1=CC=CN2CCS(=O)(=O)N=C12	/	2%	-1%
27	COc1ccc(Br)cc1CN(C)C(=O)C1=CC=CN2CCS(=O)(=O)N=C12	/	16µM*	0%
28	CN(Cc1ccc(Cl)c(Cl)c1)C(=O)C1=CC=CN2CCS(=O)(=O)N=C12	/	8.2µM*	0%
29	CCOCCc1nn2c(=O)cc(COC(=O)c3ccc4c(c3)OCO4)nc2s1	-3%	?	2%
30	COc1ccccc1/C=C/C(=O)N1CCN(S(=O)(=O)c2cc(C)ccc2C)CC1	/	16µM*	-1%

item	A549 viability	B2AR arrestin
21	?	0%
22	-7%	/
23	-28%	0%
24	-14%	0%
25	4%	/
26	-3%	0%
27	-11%	0%
28	-4%	-1%
29	2%	/
30	-2%	0%

Further results.
item	smiles	miR-21 FLuc	Nrf2 inh	Nrf2 activator
31	COc1ccc(OC)c(/C=C/C(=O)N2CCN(S(=O)(=O)c3cc(C)ccc3C)CC2)c1	/	-16%	0%
32	O=C(OCn1ncc(Cl)c(Cl)c1=O)c1ccc(C(F)(F)F)cc1	2%	3%	10µM*
33	COc1ccccc1C(O)c1nccn1Cc1ccccc1 (stereo unspecified)	/	-2%	/
34	CC(C)Cn1c(SCC(=O)NC(=O)NC2CCCC2)nc2ccccc21	13%	18µM*	3%
35	CCC/C=C1\CCCOC(C(=O)NCc2ccccc2)(C(F)(F)F)C1 (stereo unspecified)	/	1%	/
36	CCOC(=O)N1CCC(NC(=O)c2cc(-c3ccc(F)cc3)[nH]c2C)CC1	-1%	23µM*	4%
37	CCOC(=O)N1CCC(NC(=O)c2cc(C(=O)NCc3ccc(F)cc3)ccc2CO)CC1	4%	-24%	0%
38	Cc1cccc(C)c1NC(=O)C(Cl)=C(Cl)Cl	28%	26%	11µM*
39	CCN(CC)CC(=O)Nc1c(C)cccc1C	-2%	/	-1%
40	COc1ccc(CCNC(=O)Cc2c(C)c3c(cc(C)c4c(C)coc43)oc2=O)cc1OC	11%	-5%	0%

item	A549 viability	B2AR arrestin
31	1%	-1%
32	-16%	3%
33	-8%	/
34	?	-1%
35	3%	/
36	-29%	0%
37	-8%	0%
38	1%	0%
39	-1%	-1%
40	-2%	/

Remaining list, next part:
item	smiles	miR-21 FLuc	Nrf2 inh	Nrf2 activator
41	Cn1cc(/C=C/c2cc[n+](C)cc2)c2cc(Cl)ccc21	?	10µM*	0%
42	CCOc1ccc(C(=O)NCCc2csc(-c3cccnc3)n2)cc1	14%	/	0%
43	Cc1ccc(S(=O)(=O)Nc2cccc3ccc[n+](C)c23)cc1	/	-6%	/
44	Oc1ccc(N2CCN(c3ncnc4sc5c(c34)CCC5)CC2)cc1	-2%	15µM*	0%
45	OCCN1CCN(c2ncnc3sc4c(c23)CCCC4)CC1	-16%	0%	0%
46	Cc1cccc(C)c1NC(=O)Cn1nc(C)c2sc3ccccc3c2c1=O	20%	21µM*	0%
47	CCc1nnc(N2CCN(c3ncnc4c3oc3ccccc34)CC2)s1	-3%	10µM*	3%
48	COc1ccccc1CC(=O)Nc1cc(OC)c(NC(=O)c2ccccc2)cc1OC	2%	15µM*	16%
49	Fc1cc(F)cc(Nc2nc(NC3CCCC3)nc(C3CO3)n2)c1 (stereo unspecified)	/	12%	/
50	Cc1ccc(Nc2c(-c3ccc(C)s3)nc3cccc(C)n23)cc1	/	?	/
51	O=C(c1cccc(F)c1)N1CCC(c2c[nH]c3ccccc23)(c2c[nH]c3ccccc23)CC1	-1%	20%	4%
52	O=C(c1ccc(Cl)c(S(=O)(=O)N2CCCCC2)c1)N1CCN(c2ccccc2)CC1	21%	23µM*	-1%

item	A549 viability	B2AR arrestin
41	?	0%
42	5%	/
43	-7%	/
44	-11%	0%
45	0%	-1%
46	4%	/
47	-6%	0%
48	-17%	0%
49	2%	/
50	-2%	/
51	-1%	/
52	-18%	-1%
